ChEMBL document CHEMBL5724801, “EUbOPEN Chemogenomics Library - Multiplex” (2024)

Key:
Fibroblast = assay: Multiplex assay against human fibroblast; type: toxicity, cell-based; conditions: 10 µM, compound concentration 10 uM
HEK-293T = assay: Multiplex assay against HEK293T; type: toxicity, cell-based; conditions: human, 12 h, 1 µM, compound concentration 1 uM

CNC[C@H](O)c1ccc(O)c(O)c1 [EPINEPHRINE]
Total Cell Count (Fibroblast; 0 h): 165
Total Cell Count (Fibroblast; 12 h): 179
Total Cell Count (HEK-293T): 371
